According to patent publication US9801851B2, “Methods and compositions for the treatment of BCR-ABL positive lymphoblastic leukemias” (ST. JUDE CHILDREN'S RESEARCH HOSPITAL, priority 2012, dated 2017):

Columns and labels:
BCR-ABL^T315I LICs = assay: In vivo adoptive leukemia transfer Ph+ model, overall survival; details: IL7+/+ host mice; 300 mg/kg DHA or 10 mg/kg dasatinib
Arf−/− BCR-ABL^WT LICs = details: mouse, in vivo
BCR-ABL^WT LICs = assay: Drug/cytokine washout, cytokine recovery and dasatinib re-challenge studies; format: cell-based, murine; details: incremental doses; 0 to 72 h

In the case of `Cc1nc(Nc2ncc(C(=O)Nc3c(C)cccc3Cl)s2)cc(N2CCN(CCO)CC2)n1` [dasatinib], the “response of low-burden BCR-ABL^T315I leukemia to monotherapy” value (BCR-ABL^T315I LICs) is reported as “completely refractory”, the median survival (Arf−/− BCR-ABL^WT LICs) is reported as 33 days and 41 days and the “time to complete mortality after initiating therapy” value (Arf−/− BCR-ABL^WT LICs; 10 mg/kg) is reported as no more than 6 weeks. For the same compound, the “cell cycle changes at end of exposure period (FACS)” value (BCR-ABL^WT LICs) was “induce cell cycle arrest and apoptosis”.

Values joined by “and” are separate entries in the source; they are usually repeats but may differ in a detail not shown here. Equal values may be shown once.
